SMILES strings stand for the structures. This is a selection; strong and weak results do not stand in their true shares. Results filed as inconclusive are left out. Calls of active or inactive are those of the source. Calls come from the whole dose curve; as a rule, active = well fitted cell-killing curve with a large enough effect; inconclusive = small, poorly fitted or top-dose-only effect; inactive = no such curve, though single readings can be large or run the other way.
% is set by controls: 0 for no effect and ±100 for the full control effect.

The test in a line: qHTS Screen for Compounds that Selectively Target Cancer Cells with p53 Mutations: Cytotoxicity of p53ts Cells at the Nonpermissive Temperature. Note: nearly all actives have a fitted effect of over 55% in size. The following applies: H1299-p53A138V viability at 39C, ATP luminescence, 24 h; at 46.1 µM (top of the series) unless noted. In general terms: qHTS replaces the single test concentration by a dilution series.
Turning to `COc1ccccc1OP(C)(=O)Nc1ccc(C)c(C)c1` (configuration not stated), the activity change, negative = cell killing is inactive: 2.95%.

Take `COc1ccc(OP(C)(=O)Nc2ccccc2Br)cc1` (configuration not stated): the activity change, negative = cell killing was inactive: 4.58%.

For the molecule `Cc1nc2ccc3ccccc3c2o1.O=[N+]([O-])c1cc([N+](=O)[O-])c(O)c([N+](=O)[O-])c1`, the activity change, negative = cell killing is inactive: 4.23%.

As for `CP(=O)(Nc1ccccn1)Oc1ccccc1` (configuration not stated), the activity change, negative = cell killing was inactive: 8.94%.

`N#[O+].[C-]#N.[C-]#N.[C-]#N.[C-]#N.[C-]#N.[Fe+2].[Na+].[Na+]`: the activity change, negative = cell killing is inactive: 9.68%.

For `COc1ccccc1OP(C)(=O)Nc1c(C)n(C)n(-c2ccccc2)c1=O` (configuration not stated), the activity change, negative = cell killing is inactive: 13.5%.

Consider `OCCSCCO`, for which the activity change, negative = cell killing was inactive: 3.38%.

Take `CP(=O)(Oc1ccccc1)N1CCOC1=O` (configuration not stated): the activity change, negative = cell killing was inactive: 1.46%.

As for `CN(C)CCOC(=O)C(O)(c1ccccc1)C1CCCCC1` (configuration not stated), the activity change, negative = cell killing was inactive: -4.11%.

`Cc1c([N+](=O)[O-])cccc1[N+](=O)[O-]`: the activity change, negative = cell killing was inactive: 5.87%.

In the case of `Cc1ccc([N+](=O)[O-])c([N+](=O)[O-])c1`, the activity change, negative = cell killing is inactive: -0.597%.

Take `CCOP(C)(=S)SCC(=O)NC(C)(CC)C(=O)O` (configuration not stated): the activity change, negative = cell killing was inactive: 1.17%.

For the molecule `CCOP(=O)(CC)OCC`, the activity change, negative = cell killing is inactive: 2.19%.

Take `CP(=O)(Nc1ccc2c(c1)OCCO2)Oc1ccccc1` (configuration not stated): the activity change, negative = cell killing was inactive: 3.89%.

As for `Cc1ccccc1NP(C)(=O)Nc1ccccc1C`, the activity change, negative = cell killing is inactive: 0.859%.

For the molecule `CCN(CCCl)Cc1ccccc1C`, the activity change, negative = cell killing is inactive: 9.53%.

As to `NNC(NN)NN.n1nc(-c2nn[nH]n2)n[nH]1`, the activity change, negative = cell killing was inactive: -2.39% [at 9.22 µM].

For the molecule `CP(=O)(Nc1ccccc1F)Oc1ccccc1` (configuration not stated), the activity change, negative = cell killing was inactive: 9.72%.

With `CCC(C)(OO)OOC(C)(CC)OO` (configuration not stated), the activity change, negative = cell killing was inactive: -17.9%.

As for `Cc1cccc([N+](=O)[O-])c1[N+](=O)[O-]`, the activity change, negative = cell killing was inactive: -3.16%.

Take `CCN(CC)CCCOC(=O)C(O)(c1ccccc1)C1CCCCC1` (configuration not stated): the activity change, negative = cell killing was inactive: -0.973%.

As for `Cc1ccc([N+](=O)[O-])cc1[N+](=O)[O-]`, the activity change, negative = cell killing is inactive: -4.66%.

For `Cc1ccc(C)c(NP(C)(=O)Oc2ccccc2)c1` (configuration not stated), the activity change, negative = cell killing is inactive: 3.86%.

For the molecule `Cc1nc2ccc3ccccc3c2s1.O=[N+]([O-])c1cc([N+](=O)[O-])c(O)c([N+](=O)[O-])c1`, the activity change, negative = cell killing was inactive: -3.49%.

In the case of `N1=C(c2nnc(-c3nn[nH]n3)nn2)NNN1`, the activity change, negative = cell killing is inactive: 1.84% [at 9.22 µM].

In the case of `CP(=S)(Nn1cnnc1)Oc1ccccc1` (configuration not stated), the activity change, negative = cell killing was inactive: 1.11%.

Take `Cc1cccc(C)c1OP(C)(=O)Nc1ccc(SC(F)(F)F)cc1` (configuration not stated): the activity change, negative = cell killing is inactive: -26.2%.

As for `CP(=O)(NC(=O)Nc1ccccc1)Oc1ccccc1` (configuration not stated), the activity change, negative = cell killing is inactive: 4.39%.

For `CCOC(=O)c1ccc(NP(C)(=O)Oc2ccc(OC)cc2)cc1` (configuration not stated), the activity change, negative = cell killing was inactive: -2.08%.

For `CCOP(C)(=S)SCC(=O)NC(C)C(=O)O` (configuration not stated), the activity change, negative = cell killing is inactive: -4.15%.

Consider `COc1ccccc1OP(C)(=O)Nc1ccc(C)cc1` (configuration not stated), for which the activity change, negative = cell killing was inactive: -0.651%.

For `Cc1ccc(NP(C)(=O)Oc2ccccc2)c(C)c1` (configuration not stated), the activity change, negative = cell killing was inactive: 2.04%.
